From US5763212A, “Inhibiting degradation of a degron-bearing protein” (California Institute of Technology, priority 1995, dated 1998) come the findings set out here.

The test system of assay [1] is Arg-e^K-βgal (E. coli β-galactosidase-based N-end rule substrate). Particulars: addition of MTX, parallel assays in reticulocyte extract.
In assay [2] the test system is Ub-Arg-DHFR^ts-ha-Cdc28 (mouse DHFR Pro66Leu ts allele fused to S. cerevisiae Cdc28). The following applies: pulse-chase, MTX in medium.
The test system of assay [3] is S. cerevisiae cells expressing Ub-Arg-DHFR^ts-ha-Cdc28. Particulars: MTX at a sufficiently high concentration in the medium.

SMILES strings stand for the structures.

Consider `CN(Cc1cnc2nc(N)nc(N)c2n1)c1ccc(C(=O)N[C@@H](CCC(=O)O)C(=O)O)cc1` [methotrexate], for which the “effect on kinetics of Arg-e^K-βgal degradation” value in assay [1] was “did not alter the kinetics”. The “effect on degradation of Ub-Arg-DHFR^ts-ha-Cdc28 at 37° C.” value in assay [2] is on record as “inhibition of degradation”. For the same molecule, the “viability of cells at 37° C.” value in assay [3] is on record as “remained viable”.
